Assay: Pharmacokinetic comparison experiment in rats, single subcutaneous injection
Assay type: in vivo
Conditions: male rats, plasma
Description: A single subcutaneous injection was performed with a dose of 0.02 mg/kg; blood collection was performed by tail clipping, and the blood collection time points were: 0 h, 15 min, 30 min, 1 h, 2 h, 3 h, 4 h, 6 h, 8 h, 24 h, 48 h and 72 h. The compound concentration in plasma was determined by LC-MS/MS, all data were collected and exported by Unifi 1.9.3 software, and Excel software was used for data calculation. A non-compartmental model of DAS 3.0 software was used to calculate the pharmacokinetic parameters of rats after administration.

For Semaglutide, the “AUC(0-t), Mean” value (n = 3, single SC 0.02 mg/kg, LC-MS/MS, non-compartmental) was 2.24471 µg·h/mL, the “AUC(0-∞), Mean” value (single SC 0.02 mg/kg) was 2.32002 µg·h/mL and the “AUMC(0-t), Mean” value (single SC 0.02 mg/kg) was 54463.48 h * h * μg/L. The “AUMC(0-∞), Mean” value (single SC 0.02 mg/kg) was 61264.52 h * h * μg/L, the “CLz/F, Mean” value (single SC 0.02 mg/kg) was 0.15 mL/min/kg and the “Cmax, Mean” value (single SC 0.02 mg/kg) was 0.0583 µg/mL. For the same substance, the “R_AUC(t/∞), Mean” value (single SC 0.02 mg/kg) was 96.77%, the “Tmax, Mean” value (single SC 0.02 mg/kg) was 18.00 h and the “t½z, Mean” value (single SC 0.02 mg/kg) was 12.50 h.

Reference: US12590134B2, “GLP-1 agonist polypeptide compound and salt thereof, synthesis method therefor and use thereof” (Sinopep-Allsino Biopharmaceutical Co., Ltd., priority 2020, dated 2026)
